Laboratory results reported in US20240206463A1, “AGROCHEMICAL COMPOSITION” (NOURYON CHEMICALS INTERNATIONAL B.V., priority 2021, published 2024).

Assay: Diluents lowering the melting point of pelargonic acid: visual appearance (crystal/clear) of pelargonic acid/diluent blends at low temperature
[1] = pelargonic acid 30 wt % + diluent 70 wt %
[2] = pelargonic acid 50 wt % + diluent 50 wt %
[3] = pelargonic acid 70 wt % + diluent 30 wt %
[4] = pelargonic acid 80 wt % + diluent 20 wt %, printed in the 0° C. column

- appearance at 0° C. [1]: Clear
- appearance at −20° C. [1]: Clear
- appearance at 0° C. [2]: Clear
- appearance at −20° C. [2]: Crystal
- appearance at 0° C. [3]: Clear
- appearance at −20° C. [3]: Crystal
- appearance at −20° C. (pelargonic acid 80 wt % + diluent 20 wt %): Crystal
- appearance at 5° C. [4]: Crystal at 5 °C
- appearance at 10° C. [4]: clear at 10 °C
Compound: CCCCCCO [Hexanol]
